PubChem BioAssay AID1775 (NMMLSC, 2009)
This is a selection; strong and weak results do not stand in their true shares. The source made the active and inactive calls. Rule as the data show it: active = fluorescence above about 47; inactive = the rest.

Assay: green autofluorescence of compounds with avidin beads – biophysical, 488/530 nm, flow cytometry, artefact control, profiling panel (AID 1775)
Conditions: compound fluorescence 488/530 nm, at 10 µM, active compounds read high

| Compound | fluorescence (KMESF) |
| --- | --- |
| COc1cc(OC)cc(C(=O)NCC2(N3CCOCC3)CCCCC2)c1 | inactive: 11 |
| CCC(CO)(C(=O)OC1CN2CCC1CC2)c1ccccc1 (centres undefined) | inactive: 22 |
| CCCOc1ccc(C)cc1CN(CCCl)CCCl | inactive: 10 |
| CCOc1ncccc1C(=O)NCC1(N2CCOCC2)CCCCC1 | inactive: 3 |
| CC(C)(C)OC(=O)N1CCC(Nc2ccccc2)CC1 | inactive: 12 |
| CCN1CCC(Nc2cccc(F)c2)CC1 | inactive: 5 |
| CN(C)c1ccc(C(=O)NCC2(N3CCCCC3)CCCCC2)cc1 | inactive: 12 |
| Fc1ccccc1NC1CCN(Cc2ccccc2)CC1 | inactive: 20 |
| c1ccc(CN2CCC(Nc3ccccc3)CC2)cc1 | inactive: 7 |
| N#Cc1ccc(C(=O)NCC2(N3CCCCC3)CCCCC2)cc1 | inactive: 11 |
| N/C(=N\O)c1c(N)no[n+]1[O-] | inactive: 6 |
| O=C(OC1CN2CCC1CC2)C1c2ccccc2C=Cc2ccccc21 (centres undefined) | inactive: 3 |
| COc1ccc(C(=O)NCC2(N3CCOCC3)CCCCC2)cc1OC | inactive: 41 |
| CC(C)c1ccc(NC2CCN(C(=O)OC(C)(C)C)CC2)cc1 | inactive: 20 |
| CN(C)c1cccc(C(=O)NCC2(N3CCCCC3)CCCCC2)c1 | inactive: 8 |
| COc1ccc(CN(CCCl)CCCl)cc1Cl | inactive: 12 |
| O=C(NCC1(N2CCOCC2)CCCCC1)c1cc(=O)[nH]c2ccccc12 | inactive: 21 |
| COc1ccc(NC2CCN(C(=O)OC(C)(C)C)CC2)cc1 | inactive: 14 |
| CN1CCN(CCOC(=O)C(O)(c2ccccc2)c2ccccc2)CC1 | inactive: 15 |
| N#CC1(Nc2ccccc2)CCN(CCc2ccccc2)CC1 | inactive: 19 |
| O=C(NCC1(N2CCCCC2)CCCCC1)c1cccc([N+](=O)[O-])c1 | inactive: 6 |
| Cc1ccc(OCC(C)C)c(CN(CCCl)CCCl)c1 | inactive: 6 |
| CCOc1ccc(C)cc1CN(CCCl)CCCl | inactive: 6 |
| COc1ccc(NC2CCN(CCc3ccccc3)CC2)c(OC)c1 | inactive: 37 |
| O=C(NCC1(N2CCOCC2)CCCCC1)c1cc2ccccc2o1 | active: 62 |
| O=C(OC1CN2CCC1CC2)C1c2ccccc2Oc2ccccc21 (centres undefined) | inactive: 25 |
| N#CC1(Nc2ccccc2)CCN(Cc2ccccc2)CC1 | inactive: 8 |
| CCOC(=O)N1CCC(Nc2ccc(OC)cc2)CC1 | inactive: 8 |
| COc1ccc(C(=O)NCC2(N3CCCCC3)CCCCC2)c(OC)c1OC | inactive: 10 |
